From PMC5519534, “AM-37 and ST-36 Are Small Molecule Bombesin Receptor Antagonists” (Frontiers in Endocrinology, 2017)

The chains behind the UniProt entries cited, without tags or fusion partners.
UniProt P30989, whole entry: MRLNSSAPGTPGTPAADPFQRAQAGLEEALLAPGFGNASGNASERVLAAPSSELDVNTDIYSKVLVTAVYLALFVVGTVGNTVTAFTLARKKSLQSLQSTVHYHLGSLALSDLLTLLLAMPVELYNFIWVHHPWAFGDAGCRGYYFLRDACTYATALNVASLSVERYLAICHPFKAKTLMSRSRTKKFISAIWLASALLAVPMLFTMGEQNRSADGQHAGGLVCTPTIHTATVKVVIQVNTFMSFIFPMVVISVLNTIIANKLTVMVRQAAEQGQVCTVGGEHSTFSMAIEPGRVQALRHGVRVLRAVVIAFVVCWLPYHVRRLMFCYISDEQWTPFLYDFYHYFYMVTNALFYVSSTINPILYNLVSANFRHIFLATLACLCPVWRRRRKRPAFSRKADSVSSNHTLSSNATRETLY

Molecular target: T1, NTR (Homo sapiens, UniProt P30989)
T1 construct: endogenous in cells; host or cells: NCI-H1299 (transfected with bombesin receptors)
Test: Neurotensin-induced cytosolic Ca2+ in NSCLC cells (specificity)
Format: cell-based
Settings: 10 nM

neurotensin [reference compound]
Effect on cytosolic Ca2+: strongly increased
